Results on one molecule are retold here after US10350158B2, “2′ fluoro-modified RNAs as immunostimulators” (DUKE UNIVERSITY, priority 2013, dated 2019).

The assay relates to WM266-4 cells. The class given is cell-based. Particulars: B18R 100 ng/ml, type I IFN decoy receptor. Here is the method: For the intracellular delivery of immune stimulatory RNAs, RNAs were transfected with the DharmaFECT® Duo liposomal transfection reagent (Thermo Scientific, Waltham, Mass.) at a transfection reagent (μl):RNA (μg) ratio of 3.75:1, according to the manufacturer's instructions. Unless otherwise stated, for the induction of innate immune responses and apoptosis, immune stimulatory RNAs (500 ng/ml) were transfected into 50 to 70% confluent cells. Cells were incubated with an RNA-transfection agent complex for 5 h, followed by replenishment with fresh culture medium. […]
Growth inhibition relative to untreated cells was quantified at 72 h after RNA transfection using an MTT Cell Proliferation Assay Kit (Cayman Chemicals, Ann Arbor, Mich.), according to the manufacturer's instructions. The percent growth inhibition was calculated by using the following equation: % growth inhibition=([O.D.]untreated−[O.D.]treated)/[O.D.]untreated×100. The induction of cell death was measured 48 h after RNA transfection by flow cytometry after staining with Annexin V-PE and 7-Aminoactinomycin D (7-AAD) using the PE Annexin V Apoptosis Detection Kit I (BD Biosciences, San Jose, Calif.) and analyzed using the CellQuest software (BD Biosciences).

B1: recombinant IFNβ: recombinant human IFNβ (PeproTech), positive control of anti-melanoma cytotoxicity (protein)
chain: MSYNLLGFLQRSSNFQCQKLLWQLNGRLEYCLKDRMNFDIPEEIKQLQQFQKEDAALTIYEMLQNIFAIFRQDSSSTGWNETIVENLLANVYHQINHLKTVLEEKLEKEDFTRGKLMSSLHLKRYYGRILHYLKAKEYSHCAWTIVRVEILRNFYFINRLTGYLRN
For B1, the “cell death / apoptosis of melanoma cells on co-treatment with B18R” value is on record as “completely abolished”.
